The record followed here is ChEMBL document CHEMBL6182944, “Substrate Specificity of the Organic Cation Transporters MATE1 and MATE2K and Functional Overlap with OCT1 and OCT2” (J Med Chem, 2025).

In series [1] the target is T1, Multidrug and toxin extrusion protein 1 (Homo sapiens, UniProt Q96FL8).
T1 sequence (Q96FL8 whole entry): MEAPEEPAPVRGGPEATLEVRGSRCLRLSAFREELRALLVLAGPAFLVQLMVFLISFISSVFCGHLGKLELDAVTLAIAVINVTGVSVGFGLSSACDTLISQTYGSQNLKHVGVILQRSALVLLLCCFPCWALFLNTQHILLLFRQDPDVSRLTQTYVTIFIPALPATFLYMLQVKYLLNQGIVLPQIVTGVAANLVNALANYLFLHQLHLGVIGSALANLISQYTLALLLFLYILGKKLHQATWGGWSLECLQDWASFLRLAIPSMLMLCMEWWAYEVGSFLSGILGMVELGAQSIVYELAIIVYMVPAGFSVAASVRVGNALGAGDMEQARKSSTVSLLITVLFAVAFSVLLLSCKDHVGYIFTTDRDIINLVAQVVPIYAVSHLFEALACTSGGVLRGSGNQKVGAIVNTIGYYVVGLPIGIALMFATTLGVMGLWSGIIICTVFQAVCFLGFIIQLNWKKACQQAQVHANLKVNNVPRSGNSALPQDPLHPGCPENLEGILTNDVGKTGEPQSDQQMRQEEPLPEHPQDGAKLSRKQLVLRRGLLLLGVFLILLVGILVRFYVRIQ
The series can be described thus: Substrate activity at MATE1 (unknown origin) expressed in HEK293 cells assessed as ratio of uptake by the enantiomer with higher value to enantiomer with lower value at […] measured after 1 min by HPLC-MS/MS analysis. Format: cell-based. As to conditions: hek293, 1 min, dose 2.5 µM.

In series [2] the target is T2, Multidrug and toxin extrusion protein 2 (Homo sapiens, UniProt Q86VL8).
T2 sequence (Q86VL8 whole entry): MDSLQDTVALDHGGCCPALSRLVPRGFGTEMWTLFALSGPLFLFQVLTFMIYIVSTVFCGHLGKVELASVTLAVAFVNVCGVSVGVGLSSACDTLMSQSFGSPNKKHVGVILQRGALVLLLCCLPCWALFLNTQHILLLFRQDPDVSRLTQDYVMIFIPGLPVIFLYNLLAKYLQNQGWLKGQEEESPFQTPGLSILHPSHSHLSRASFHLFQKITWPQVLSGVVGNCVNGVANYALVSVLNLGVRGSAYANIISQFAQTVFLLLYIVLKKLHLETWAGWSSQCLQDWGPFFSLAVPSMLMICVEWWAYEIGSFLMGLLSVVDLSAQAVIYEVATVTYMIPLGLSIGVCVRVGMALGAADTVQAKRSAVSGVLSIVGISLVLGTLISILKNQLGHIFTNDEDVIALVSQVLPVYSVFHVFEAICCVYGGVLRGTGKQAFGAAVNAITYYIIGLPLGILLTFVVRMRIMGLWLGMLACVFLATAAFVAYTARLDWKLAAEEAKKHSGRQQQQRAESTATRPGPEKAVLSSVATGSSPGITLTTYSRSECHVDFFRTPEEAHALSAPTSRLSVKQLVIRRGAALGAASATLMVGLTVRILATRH
The series can be described thus: Substrate activity at MATE2-K (unknown origin) expressed in HEK293 cells assessed as ratio of uptake by the enantiomer with higher value to enantiomer with lower value at […] measured after 1 min by HPLC-MS/MS analysis. Format: cell-based. As to conditions: hek293, 1 min, dose 2.5 µM.

For series [3], the target named is T1, Multidrug and toxin extrusion protein 1. The series can be described thus: Substrate activity at MATE1 (unknown origin) expressed in HEK293 cells assessed as intrinsic clearance by measuring ratio of Vmax (maximum transport velocity) over Km measured per mg of protein by HPLC-MS/MS analysis. Format: cell-based.
Series [4] deals with T2, Multidrug and toxin extrusion protein 2. The series can be described thus: Substrate activity at MATE2-K (unknown origin) expressed in HEK293 cells assessed as intrinsic clearance by measuring ratio of Vmax (maximum transport velocity) over Km measured per mg of protein by HPLC-MS/MS analysis. The series is classed as cell-based.
Series [5] deals with T3, MATE1 (Homo sapiens, UniProt Q96FL8).
T3 sequence (Q96FL8 whole entry): T1 sequence (Q96FL8 whole entry)
Description: in vitro.

Series [6] deals with T4, MATE2-K (Homo sapiens, UniProt Q86VL8).
T4 sequence (Q86VL8 whole entry): T2 sequence (Q86VL8 whole entry)
Description: in vitro.

Substrate in series [7]: Cc1ncc(C[n+]2csc(CCO)c2C)c(N)n1
Description: not read.

Where only a bound is given, the exact number is not on record here.

In the case of `CCNC(C)Cc1cccc(C(F)(F)F)c1` (racemic) [FENFLURAMINE], the Ratio in series [1] and in series [2] was over 1 in each case.

As for `CNS(=O)(=O)Cc1ccc2[nH]cc(CCN(C)C)c2c1`, the values for the CL in series [3] and in series [4] were 59.4 µL/min and 24 µL/min, respectively. On to `CC(C)(C)NCC(O)COc1nsnc1N1CCOCC1` (racemic), for which the Ratio in series [1] and in series [2] was over 1 each time.

As to `CCN1CCCC1CNC(=O)c1cc(S(N)(=O)=O)ccc1OC` (stereo not drawn) [SULPIRIDE], the uptake ratio at 1 min, […] in series [5] and in series [6] was over 2 in each case. For the molecule `C#CCN(C)C(C)Cc1ccccc1` (racemic), the Ratio in series [1] and in series [2] was over 1 throughout. Consider `CC(C)(C)NC[C@H](O)COc1nsnc1N1CCOCC1` [TIMOLOL], for which the uptake ratio at 1 min, […] in series [5] and in series [6] was under 2 in each case.

B1: Multidrug and toxin extrusion protein 2 (Homo sapiens) (protein)
chain: T2 sequence (Q86VL8 whole entry)
Take B1: the Km (commonly the concentration of substrate that gives half-maximal velocity) in series [7] was determined as 17.3 µM.
